B1: RAC-alpha serine/threonine-protein kinase (Homo sapiens), P31749 (parent)
chain: MSDVAIVKEGWLHKRGEYIKTWRPRYFLLKNDGTFIGYKERPQDVDQREAPLNNFSVAQCQLMKTERPRPNTFIIRCLQWTTVIERTFHVETPEEREEWTTAIQTVADGLKKQEEEEMDFRSGSPSDNSGAEEMEVSLAKPKHRVTMNEFEYLKLLGKGTFGKVILVKEKATGRYYAMKILKKEVIVAKDEVAHTLTENRVLQNSRHPFLTALKYSFQTHDRLCFVMEYANGGELFFHLSRERVFSEDRARFYGAEIVSALDYLHSEKNVVYRDLKLENLMLDKDGHIKITDFGLCKEGIKDGATMKTFCGTPEYLAPEVLEDNDYGRAVDWWGLGVVMYEMMCGRLPFYNQDHEKLFELILMEEIRFPRTLGPEAKSLLSGLLKKDPKQRLGGGSEDAKEIMQHRFFAGIVWQHVYEKKLSPPFKPQVTSETDTRYFDEEFTAQMITITPPDQDDSMECVDSERRPHFPQFSYSASGTA

Variants of: B1
Details: with lims1_human LIMS1, P48059

Variant	effect of a mutation on the interaction
E17K	with no effect

Variants of: B1
Details: with mp2k7_human MAP2K7, O14733

Variant	effect of a mutation on the interaction
E17K	with no effect

Variants of: B1
Details: with mk14_human MAPK14

Variant	effect of a mutation on the interaction
E17K	with no effect

Variants of: B1
Details: with mk03_human MAPK3, P27361

Variant	effect of a mutation on the interaction
E17K	with no effect

Variants of: B1
Details: with mk06_human MAPK6

Variant	effect of a mutation on the interaction
E17K	with no effect

Variants of: B1
Details: with mlh1_human MLH1, P40692

Variant	effect of a mutation on the interaction
E17K	with no effect

Variants of: B1
Details: with myd88_human MYD88, Q99836

Variant	effect of a mutation on the interaction
E17K	with no effect

Variants of: B1
Details: with nduc2_human NDUFC2

Variant	effect of a mutation on the interaction
E17K	with no effect

Variants of: B1
Details: with nf1_human NF1, P21359

Variant	effect of a mutation on the interaction
E17K	with no effect

Variants of: B1
Details: with nox1_human NOX1, Q9Y5S8

Variant	effect of a mutation on the interaction
E17K	with no effect

Variants of: B1
Details: with npm_human NPM1

Variant	effect of a mutation on the interaction
E17K	with no effect

Variants of: B1
Details: with nqo1_human NQO1

Variant	effect of a mutation on the interaction
E17K	with no effect

Variants of: B1
Details: with ntrk3_human NTRK3, Q16288

Variant	effect of a mutation on the interaction
E17K	with no effect

Variants of: B1
Details: with pax5_human PAX5, Q02548

Variant	effect of a mutation on the interaction
E17K	with no effect

Variants of: B1
Details: with pax9_human PAX9, P55771

Variant	effect of a mutation on the interaction
E17K	with no effect

Variants of: B1
Details: with pb1_human PBRM1

Variant	effect of a mutation on the interaction
E17K	with no effect

Variants of: B1
Details: with pgfrb_human PDGFRB

Variant	effect of a mutation on the interaction
E17K	with no effect

Variants of: B1
Details: with PIK3C2B

Variant	effect of a mutation on the interaction
E17K	with no effect

Variants of: B1
Details: with pk3c3_human PIK3C3

Variant	effect of a mutation on the interaction
E17K	with no effect

Variants of: B1
Details: with pk3cg_human PIK3CG

Variant	effect of a mutation on the interaction
E17K	with no effect

Variants of: B1
Details: with p85a_human PIK3R1

Variant	effect of a mutation on the interaction
E17K	with no effect

Variants of: B1
Details: with p85b_human PIK3R2, O00459

Variant	effect of a mutation on the interaction
E17K	with no effect

Variants of: B1
Details: with dpod1_human POLD1, P28340

Variant	effect of a mutation on the interaction
E17K	with no effect

Variants of: B1
Details: with 2aaa_human PPP2R1A

Variant	effect of a mutation on the interaction
E17K	with no effect

Variants of: B1
Details: with aakb2_human PRKAB2, O43741

Variant	effect of a mutation on the interaction
E17K	with no effect

Variants of: B1
Details: with prss8_human PRSS8, Q16651

Variant	effect of a mutation on the interaction
E17K	with no effect

Variants of: B1
Details: with tf65_human RELA

Variant	effect of a mutation on the interaction
E17K	with no effect

Variants of: B1
Details: with rit1_human RIT1

Variant	effect of a mutation on the interaction
E17K	with no effect

Variants of: B1
Details: with rnf43_human RNF43, Q68DV7

Variant	effect of a mutation on the interaction
E17K	with no effect

Variants of: B1
Details: with ros1_human ROS1, P08922

Variant	effect of a mutation on the interaction
E17K	with no effect

Variants of: B1
Details: with rs15_human RPS15

Variant	effect of a mutation on the interaction
E17K	with no effect

Variants of: B1
Details: with rs2_human RPS2

Variant	effect of a mutation on the interaction
E17K	with no effect

Variants of: B1
Details: with ruvb1_human RUVBL1

Variant	effect of a mutation on the interaction
E17K	with no effect

Variants of: B1
Details: with setbp_human SETBP1, Q9Y6X0

Variant	effect of a mutation on the interaction
E17K	with no effect

Variants of: B1
Details: with sf3b1_human SF3B1, O75533

Variant	effect of a mutation on the interaction
E17K	with no effect

Variants of: B1
Details: with xct_human SLC7A11, Q9UPY5

Variant	effect of a mutation on the interaction
E17K	with no effect

Variants of: B1
Details: with smad1_human SMAD1, Q15797

Variant	effect of a mutation on the interaction
E17K	with no effect

Variants of: B1
Details: with smad2_human SMAD2, Q15796

Variant	effect of a mutation on the interaction
E17K	with no effect

Variants of: B1
Details: with smad3_human SMAD3, P84022

Variant	effect of a mutation on the interaction
E17K	with no effect

Variants of: B1
Details: with smo_human SMO

Variant	effect of a mutation on the interaction
E17K	with no effect

Variants of: B1
Details: with socs1_human SOCS1, O15524

Variant	effect of a mutation on the interaction
E17K	with no effect

Variants of: B1
Details: with sox10_human SOX10, P56693

Variant	effect of a mutation on the interaction
E17K	with no effect

Variants of: B1
Details: with sox2_human SOX2, P48431

Variant	effect of a mutation on the interaction
E17K	with no effect

Variants of: B1
Details: with sox3_human SOX3, P41225

Variant	effect of a mutation on the interaction
E17K	with no effect

Variants of: B1
Details: with sox9_human SOX9, P48436

Variant	effect of a mutation on the interaction
E17K	with no effect

Variants of: B1
Details: with spop_human SPOP

Variant	effect of a mutation on the interaction
E17K	with no effect

Variants of: B1
Details: with src_human SRC

Variant	effect of a mutation on the interaction
E17K	with no effect

Variants of: B1
Details: with stat3_human STAT3, P40763

Variant	effect of a mutation on the interaction
E17K	with no effect

Variants of: B1
Details: with whr1_human WHR1, P49842

Variant	effect of a mutation on the interaction
E17K	with no effect

Variants of: B1
Details: with ksyk_human SYK

Variant	effect of a mutation on the interaction
E17K	with no effect

Variants of: B1
Details: with tfe2_human TCF3, P15923

Variant	effect of a mutation on the interaction
E17K	with no effect

Variants of: B1
Details: with tead1_human TEAD1

Variant	effect of a mutation on the interaction
E17K	with no effect

Variants of: B1
Details: with tead3_human TEAD3, Q99594

Variant	effect of a mutation on the interaction
E17K	with no effect

Variants of: B1
Details: with tet2_human TET2, Q6N021

Variant	effect of a mutation on the interaction
E17K	with no effect

Variants of: B1
Details: with tgfr2_human TGFBR2, P37173

Variant	effect of a mutation on the interaction
E17K	with no effect

Variants of: B1
Details: with ti17a_human TIMM17A

Variant	effect of a mutation on the interaction
E17K	with no effect

Variants of: B1
Details: with TMEM106B

Variant	effect of a mutation on the interaction
E17K	with no effect

Variants of: B1
Details: with tnfa_human TNF

Variant	effect of a mutation on the interaction
E17K	with no effect

Variants of: B1
Details: with vegfa_human VEGFA

Variant	effect of a mutation on the interaction
E17K	with no effect

Variants of: B1
Details: with wt1_human WT1, P19544

Variant	effect of a mutation on the interaction
E17K	with no effect

Variants of: B1
Details: with xirp2_human XIRP2, A4UGR9

Variant	effect of a mutation on the interaction
E17K	with no effect

Variants of: B1
Details: with 1433e_human YWHAE

Variant	effect of a mutation on the interaction
E17K	with no effect

Variants of: B1
Details: with zn217_human ZNF217, O75362

Variant	effect of a mutation on the interaction
E17K	with no effect

Variants of: B1
Details: with pcbp1_human PCBP1

Variant	effect of a mutation on the interaction
E17K	disrupting interaction strength

Variants of: B1
Details: with arnt_human ARNT

Variant	effect of a mutation on the interaction
E17K	causing an interaction

Variants of: B1
Details: with arc1a_human ARPC1A

Variant	effect of a mutation on the interaction
E17K	causing an interaction

Variants of: B1
Details: with arrb2_human ARRB2

Variant	effect of a mutation on the interaction
E17K	causing an interaction

Variants of: B1
Details: with aurkb_human AURKB

Variant	effect of a mutation on the interaction
E17K	causing an interaction

Variants of: B1
Details: with axin2_human AXIN2

Variant	effect of a mutation on the interaction
E17K	causing an interaction

Variants of: B1
Details: with bard1_human BARD1, Q99728

Variant	effect of a mutation on the interaction
E17K	causing an interaction

Variants of: B1
Details: with bcor_human BCOR

Variant	effect of a mutation on the interaction
E17K	causing an interaction

Variants of: B1
Details: with bcorl_human BCORL1, Q5H9F3

Variant	effect of a mutation on the interaction
E17K	causing an interaction

Variants of: B1
Details: with btk_human BTK

Variant	effect of a mutation on the interaction
E17K	causing an interaction

Variants of: B1
Details: with cdk6_human CDK6

Variant	effect of a mutation on the interaction
E17K	causing an interaction

Variants of: B1
Details: with chd1l_human CHD1L

Variant	effect of a mutation on the interaction
E17K	causing an interaction
